# This is a selection; strong and weak results do not stand in their true shares. The source made the active and inactive calls.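 The calls were made as follows: active = calcium-response B-score plate-corrected more than 3 library SD below zero, starting fluorescence within 5 deviations, no agonist response on first addition; inactive = the rest.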
# Sequences of proteins named here, by UniProt entry; tags and fusion partners are left off.
# UniProt Q96LB2, whole entry: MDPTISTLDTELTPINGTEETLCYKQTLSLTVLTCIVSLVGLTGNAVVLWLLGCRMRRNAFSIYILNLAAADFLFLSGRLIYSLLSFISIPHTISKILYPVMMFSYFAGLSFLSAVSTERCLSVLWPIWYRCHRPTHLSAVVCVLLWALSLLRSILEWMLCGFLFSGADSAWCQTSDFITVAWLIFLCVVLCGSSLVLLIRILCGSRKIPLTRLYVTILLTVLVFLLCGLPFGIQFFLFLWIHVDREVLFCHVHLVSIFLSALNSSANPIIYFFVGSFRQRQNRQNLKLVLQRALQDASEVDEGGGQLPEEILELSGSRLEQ
# Target: Mas-related G-protein coupled receptor member X1 (Homo sapiens) (UniProt Q96LB2)
# Assay: blockade of BAM8-22-evoked MrgX1 calcium response – HEK293 cells, Fluo-4 calcium flux, primary screen (AID 588676)
# Conditions: Fluo-4, BAM8-22 antagonism, at 10 µM
row,SMILES,outcome
1,Cc1cc(SC(NC(=O)c2ccc(F)cc2)C(Cl)(Cl)Cl)ncn1 (centres undefined),inactive
2,CCOP(=O)(Nc1ccccc1)OCC,inactive
3,COc1ccc(OP(C)(=O)Nc2ccccc2Br)cc1 (centres undefined),inactive
4,Cc1nc2ccc3ccccc3c2o1.O=[N+]([O-])c1cc([N+](=O)[O-])c(O)c([N+](=O)[O-])c1,inactive
5,O=[N+]([O-])c1cc([N+](=O)[O-])c(CCN2CCOCC2)c([N+](=O)[O-])c1,inactive
6,CCN(N=Nc1nonc1N)c1nonc1N,inactive
7,CP(=O)(Nc1ccc(Cl)cc1Cl)Oc1ccccc1 (centres undefined),inactive
8,CP(=O)(OCCOc1ccccc1)OCCOc1ccccc1,inactive
9,Nc1cccc2ccc([As](=O)(O)O)cc12,inactive
10,NC(=O)c1cc([N+](=O)[O-])cc([N+](=O)[O-])c1N,inactive
11,Cc1ccc(N/C(=N/P(=O)(N2CCOCC2)N2CCOCC2)N2CCOCC2)cc1,inactive
12,CN(C(=O)Cc1ccc(Cl)c(Cl)c1)[C@H]1CCCC[C@H]1N1CCCC1,inactive
13,COc1ccccc1OP(C)(=O)Nc1ccc(Br)cc1 (centres undefined),inactive
14,Cc1ccc(OP(=O)(Nc2nccs2)Oc2ccc(C)cc2)cc1,inactive
15,COc1ccccc1OP(=O)(Nc1ccc(C)cn1)Oc1ccccc1OC,inactive
16,COc1ccc(OP(C)(=O)Nc2ccccn2)cc1 (centres undefined),inactive
17,CN1CCCC(OC(=O)C(c2ccccc2)c2ccccc2)C1 (centres undefined),inactive
18,CN(C)CCOC(=O)C(O)(c1ccccc1)C1CCCC1 (centres undefined),inactive
19,Clc1ccc(Cl)c(NC2=NCC(CBr)S2)c1 (centres undefined),inactive
20,Nc1cc(N)c2nonc2c1[N+](=O)[O-],inactive
21,Cc1c(NP(C)(=O)Oc2ccc(C(C)C)cc2)c(=O)n(-c2ccccc2)n1C (centres undefined),inactive
22,O=[N+]([O-])c1cc([N+](=O)[O-])c(Nc2ccccn2)c([N+](=O)[O-])c1,inactive
23,CC(C)CC(=O)NC(Sc1ccc(Cl)cc1)C(Cl)(Cl)Cl (centres undefined),inactive
24,O=C(NC(Sc1ccncn1)C(Cl)(Cl)Cl)c1ccccc1 (centres undefined),inactive
25,Cc1c2non([O-])c-2c(C)[n+](=O)[n+]1[O-],inactive
26,Oc1ccccc1CNc1ccccn1,inactive
27,COc1ccccc1OP(C)(=O)Nc1ccc(C)cc1C (centres undefined),inactive
28,CP(=O)(Nc1ccccn1)Oc1ccccc1 (centres undefined),inactive
29,CCc1ccc(OP(C)(=O)O)cc1,inactive
